## OPERA 2.9 data: logP (octanol/water) values

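The numbers are reported measurements, compiled and curated for the OPERA QSAR suite. A listed value is a point estimate from one report or more. Method and conditions are not stated for these values. The measured form (salt, isomer or mixture) is not always the one drawn. Unmarked limits or estimates from the upstream databases cannot be ruled out.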

logP is the log10 of the octanol-water partition coefficient; higher is more lipophilic.

structure (SMILES),log Kow
CN(N=O)C(C)(C)C,0.81
CC(F)(F)Cl,1.63
C[N+](C)(C)Cc1ccc(CCl)o1.[I-],-2
CC(=O)OO,-0.56
c1ccc(-c2ccccc2-c2ccccc2)cc1,5.28
O=C=Nc1ccc(Cl)cc1,3.12
C[N+](C)(C)CC1CCOC1.[I-] (stereo not drawn),-2.65
N#Cc1cc([N+](=O)[O-])ccc1N,1.6
C[N+](C)(C)CC1CO1.[Cl-] (stereo not drawn),-1.3
O=C1OC(=O)c2c(Cl)c(Cl)c(Cl)c(Cl)c21,3.145
Cc1cc(N)ccc1N.Cl.Cl,0.019
CCOP(=S)(S)OCC,-0.77
Oc1cc(Cl)cc(Cl)c1O,2.32
CC(F)(Cl)Cl,2.3
C[N+](C)(C)CC1CCCO1.[I-] (stereo not drawn),-2.3
CCCCCCCCCCCCCCCC[N+](C)(C)C.[Cl-],3.23
N#CCO,-1.13
CCCCCCCCCCCCCCCC[N+](C)(C)CCO.O=P([O-])(O)O,6.708
C[N+]1(C)C2CCC1CC(OC(=O)C(CO)c1ccccc1)C2.O=[N+]([O-])[O-] (stereo not drawn),-2.22
Cl.OC(CNC1CCCCC1)c1ccccc1 (stereo not drawn),-0.11
COC1=C[C@]23CCCN2CCc2cc4c(cc2[C@@H]3C1=O)OCO4,0.84
[C-]#[O+].[C-]#[O+].[C-]#[O+].[C-]#[O+].[C-]#[O+].[Fe],3
Cc1cc([N+](=O)[O-])ccc1N,1.311
Clc1cc(Cl)c(-c2ccc(Cl)c(Cl)c2)c(Cl)c1,6.58
CO[C@@]12[C@H](COC(=N)O)C3=C(C(=O)C(C)=C(N=C4CC=NN4)C3=O)N1C[C@@H]1N[C@@H]12,0.08
CC(C)COC(=O)[C@H](C)Cl,2.775
Cc1ccc(O)c(Cl)c1,2.65
CCN(C)C(=O)Oc1cccc([C@H](C)N(C)C)c1,2.3
C=CCC1(CC(C)C)C(=O)NC(=O)NC1=O,1.7
O=C1OC(=O)C2C1C1(Cl)C(Cl)=C(Cl)C2(Cl)C1(Cl)Cl (stereo not drawn),1.39
C[C@@H](O)CCO,-0.9
C1CCC2CCCCC2C1 (stereo not drawn),4.7
CNP(=O)(N1CC1C)N1CC1C (stereo not drawn),1.05
C=C(C)c1ccc(O)cc1,2.9
COC(=O)N(C)SN(C)C(=O)ON=C(SC)C(=O)N(C)C,-0.07
CC(C)(c1cc(Br)c(OCCO)c(Br)c1)c1cc(Br)c(OCCO)c(Br)c1,4.97
CC(Cl)(Cl)[N+](=O)[O-],1.56
C[C@]12CCC(=O)C=C1CC[C@@H]1[C@@H]2CC[C@@]2(C)[C@H]1CC[C@]2(O)C#N,2.43
Clc1cc(-c2cc(Cl)c(Cl)c(Cl)c2Cl)cc(Cl)c1Cl,7.71
O=S(=O)(NS(=O)(=O)C(F)(F)F)C(F)(F)F,-0.771
O=C1C[C@@H]2OCC=C3CN4CCC56c7cc([N+](=O)[O-])ccc7N1[C@H]5[C@H]2[C@H]3C[C@H]46 (stereo partly drawn),1.61
COc1ccc(CCN2CCC(Nc3nc4ccccc4n3Cc3ccc(F)cc3)CC2)cc1,5.8
FCC(F)(F)F,1.06
CC(=O)Cl,-0.47
O=C(Cl)C(Cl)(Cl)Cl,0.88
COC(=O)CCl,0.76
BrCC(Br)C1CCC(Br)C(Br)C1 (stereo not drawn),5.24
COC1C(O)CC(OC2C(O)CC(OC3C(O)CC(OC4CCC5(C)C(CCC6C5CCC5(C)C(C7=CC(=O)OC7)CCC65O)C4)OC3C)OC2C)OC1C (stereo not drawn),3.11
CCOP(=S)(OCC)Oc1ccc(F)nc1,3.51
Cc1cc(N)ccc1N,0.16

Extract of 4 entries:

{"smiles": "Clc1cc(Cl)c(-c2ccc(Cl)c(Cl)c2)c(Cl)c1", "log Kow": "6.58"}
{"smiles": "COC(=O)N(C)SN(C)C(=O)ON=C(SC)C(=O)N(C)C", "log Kow": "-0.07"}
{"smiles": "FCC(F)(F)F", "log Kow": "1.06"}
{"smiles": "C[C@]12CCC(=O)C=C1CC[C@@H]1[C@@H]2CC[C@@]2(C)[C@H]1CC[C@]2(O)C#N", "log Kow": "2.43"}

From the experimental data distributed with OPERA 2.9.